ChEMBL document CHEMBL1132559 (J Med Chem, 1999)

Sequences of proteins named here, by UniProt entry; tags and fusion partners are left off.
UniProt P14842, whole entry: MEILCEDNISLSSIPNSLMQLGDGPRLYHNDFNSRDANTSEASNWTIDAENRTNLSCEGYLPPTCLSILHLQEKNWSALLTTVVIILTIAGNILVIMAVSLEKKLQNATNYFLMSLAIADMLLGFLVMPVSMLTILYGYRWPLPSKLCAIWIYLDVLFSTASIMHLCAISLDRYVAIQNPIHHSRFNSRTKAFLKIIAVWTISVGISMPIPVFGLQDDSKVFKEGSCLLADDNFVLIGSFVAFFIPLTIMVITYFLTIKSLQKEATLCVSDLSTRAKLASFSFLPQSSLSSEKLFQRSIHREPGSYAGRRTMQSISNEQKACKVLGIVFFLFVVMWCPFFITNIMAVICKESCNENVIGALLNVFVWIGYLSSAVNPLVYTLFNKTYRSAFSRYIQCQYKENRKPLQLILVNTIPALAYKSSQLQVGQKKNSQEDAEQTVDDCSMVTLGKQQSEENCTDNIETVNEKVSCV

Biological target: 5-hydroxytryptamine receptor 2A (Rattus norvegicus, UniProt P14842)
Experiment: Compound was tested for the inhibition of [3H]ketanserin binding to 5-hydroxytryptamine 2A receptor
How it was run: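 Radioligand displacement on rat cortical membranes using [3H]ketanserin (1.0 nM), with methysergide as the reference compound. IC50 derived from six test concentrations, each in triplicate, in one experiment. Run at an external screening laboratory.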

**Q.** For O=c1n(CCCN2CCN(c3cccc(Cl)c3)CC2)nc2ccccn12 [TRAZODONE], which IC50 is on record?
**A.** 17 nM
